Data published in patent US11447445B2, “Diabetes and metabolic syndrome treatment with a novel dual modulator of soluble epoxide hydrolase and peroxisome proliferator-activated receptors” (priority 2015, dated 2022).
Values joined by “and” are separate entries in the source; they are usually repeats but may differ in a detail not shown here. Equal values may be shown once.

Protein sequences, listed by entry. Tags and fused reporters are not part of them. Residues count along the entry.
UniProt P37231, 238-503: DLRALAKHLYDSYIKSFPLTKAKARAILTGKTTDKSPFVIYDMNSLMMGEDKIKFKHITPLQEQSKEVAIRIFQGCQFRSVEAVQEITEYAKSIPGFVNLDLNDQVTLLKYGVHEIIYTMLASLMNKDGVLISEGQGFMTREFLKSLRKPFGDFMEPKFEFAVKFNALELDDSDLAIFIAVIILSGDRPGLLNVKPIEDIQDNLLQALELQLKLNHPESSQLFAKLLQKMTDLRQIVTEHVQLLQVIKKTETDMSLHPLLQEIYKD
UniProt Q07869, 239-466: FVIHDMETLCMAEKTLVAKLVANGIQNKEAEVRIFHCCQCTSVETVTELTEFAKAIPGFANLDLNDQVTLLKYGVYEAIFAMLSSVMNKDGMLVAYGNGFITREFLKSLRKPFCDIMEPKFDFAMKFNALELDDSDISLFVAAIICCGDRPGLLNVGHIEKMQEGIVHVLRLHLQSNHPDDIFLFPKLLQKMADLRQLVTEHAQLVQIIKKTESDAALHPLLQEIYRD
UniProt P34913, whole entry: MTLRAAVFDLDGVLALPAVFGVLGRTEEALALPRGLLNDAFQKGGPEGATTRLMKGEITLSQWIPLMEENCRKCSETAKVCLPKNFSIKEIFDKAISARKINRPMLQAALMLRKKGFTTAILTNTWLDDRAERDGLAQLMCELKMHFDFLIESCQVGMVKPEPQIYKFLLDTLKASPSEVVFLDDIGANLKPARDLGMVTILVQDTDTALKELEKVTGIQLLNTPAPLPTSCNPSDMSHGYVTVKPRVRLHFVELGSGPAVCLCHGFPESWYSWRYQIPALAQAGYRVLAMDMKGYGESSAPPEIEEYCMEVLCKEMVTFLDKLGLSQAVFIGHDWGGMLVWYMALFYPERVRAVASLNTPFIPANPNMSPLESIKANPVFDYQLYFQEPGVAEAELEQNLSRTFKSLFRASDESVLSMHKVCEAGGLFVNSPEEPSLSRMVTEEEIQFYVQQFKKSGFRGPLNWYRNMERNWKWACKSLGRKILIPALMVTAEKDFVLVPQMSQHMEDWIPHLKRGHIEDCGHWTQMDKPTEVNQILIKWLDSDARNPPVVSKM

What was measured:
[1] = target: T1, PPARγ (Homo sapiens, UniProt P37231); assay: cell-based; type: cell-based; conditions: for Emax: COS-7, read-out: Emax-% PPARγ (maximum activation in percent); for EC50: i.a. = inactive; for activation at 10 µM: COS-7, read-out: PPARγ activation @10 μM, at 10 μM, compared to pioglitazone 1 μM
T1 construct: expressed in transfected cells; host or cells: COS-7
Procedure: (§1) COS-7 cells (PPAR) were grown in DMEM high glucose, supplemented with 10% fetal calf serum (FCS), 1% sodium pyruvate (SP) and 1% penicillin/streptomycin (PS) at 37° C. and 5% CO2. Used plasmids for PPAR transactivation assay are shown under supporting informations.
(§2) The day before transfection, COS-7 cells were seeded in 96-well plates with a density of 30,000 cells per well. Transient transfection was carried out using Lipofectamine LTX reagent (Invitrogen, Carlsbad, Calif., USA) according to the manufacturer's protocol with pFR-Luc (Stratagene), pRL-SV40 (Promega) and the Ga14-fusion receptor plasmids (pFA-CMV-hPPAR-LBD) of the respective PPAR subtype. 5 h after transfection, medium was changed to DMEM without phenol red and 10% FCS, supplemented with 1% SP, 1% PS and 1% L-glutamine, now additionally containing 0.1% DMSO and the respective test compound or 0.1% DMSO alone as untreated control. Each concentration was tested in triplicate wells and each experiment was repeated independently at least three times. Following overnight incubation with the test compounds, cells were assayed for luciferase activity using Dual-Glo™ Luciferase Assay System (Promega) according to the manufacturer's protocol. Luminescence was measured with an Infinite m200 luminometer (Tecan Deutschland GmbH). Each concentration of the compounds was tested in triplicate wells. Normalization for transfection efficacy and cell growth was done by division of the firefly luciferase data by renilla luciferase data resulting in relative light units. Activation factors were obtained by dividing by DMSO control. […] All compounds were evaluated by comparison of the achieved maximum effect to that of the reference compound (pioglitazone for PPARγ, GW7647 for PPARa, and L165041 for PPARS each with 1 μM). Data are expressed as mean±SE; n≥3.
The Gal4-fusion receptor plasmids pFA-CMV-PPARa-LBD, pFA-CMV-PPARS-LBD and pFA-CMV-PPARγ-LBD containing the hinge region and ligand binding domain (LBD) for each of the PPAR subtypes, respectively, were constructed by integrating cDNA fragments obtained from PCR amplification of human monocytes into the SmaI/XbaI cleavage site of the pFA-CMV vector (Stratagene, La Jolla, Calif., USA) and have already been published. […] Frame and sequence of the fusion receptors were verified by sequencing. pFR-Luc (Stratagene) was used as reporter plasmid and pRL-SV40 (Promega) for normalization of transfection efficacy and cell growth.

[2] = after p.o. 30 mg/kg bw of 1c
[3] = target: T2, PPARα (Homo sapiens, UniProt Q07869); assay: cell-based; conditions: COS-7, read-out: Emax-% PPARα (maximum activation in percent)
T2 construct: expressed in transfected cells; host or cells: COS-7
Procedure: as §1
as §2, with “Following overnight incubation with the test compounds, cells were assayed for luciferase activity using Dual-Glo™ Luciferase Assay System (Promega) according to the manufacturer's protocol.” left out, “GmbH).” for “GmbH). Each concentration of the compounds was tested in triplicate wells. Normalization for transfection efficacy and cell growth was done by division of the firefly luciferase data by renilla luciferase data resulting in relative light units. Activation factors were obtained by dividing by DMSO control.”, “n≥3. […]” for “n≥3.”

[4] = target: recombinant human sEH (Homo sapiens, UniProt P34913); type: biochemical

Structure (SMILES): CCOC(=O)C(CC)Cc1ccc(C(=O)NCc2ccccc2C(F)(F)F)cc1 (stereo not drawn) [Compound 1b, Ethyl 2-ethyl 3-[4-(N-((2-trifluoromethyl)benzyl)benzamide)]propanoate]
- Emax [1]: 86%
- EC50 [1]: 1.8 ± 0.2 µM

Structure (SMILES): CCC(Cc1ccc(C(=O)NCc2ccccc2C(F)(F)F)cc1)C(=O)O (stereo not drawn) [Compound 1c, 2-Ethyl 3-[4-(N-((2-trifluoromethyl)benzyl)benzamide)]propionic acid]
- Emax [1]: 127%
- EC50 [1]: 4.8 ± 2.1 µM
- maximum concentration in mouse plasma [2]: 7200 ng/ml and 20 μM

Structure (SMILES): CC/C(=C\c1ccc(C(=O)NCc2ccccc2C(F)(F)F)cc1)C(=O)O [Compound 1d, (E)-4-[N-((2-Trifluoromethyl)benzyl)benzamide]-alpha-ethylcinnamic acid]
- Emax [1]: 117%
- EC50 [1]: 2.2 ± 0.3 µM

Structure (SMILES): CCOC(=O)C(CC)Cc1ccc(C(=O)NCc2ccccc2C)cc1 (stereo not drawn) [Compound 3b, Ethyl 2-ethyl 3-[4-(N-((2-methyl)benzyl)benzamide)]propanoate]
- activation at 10 µM [1]: 15%

Structure (SMILES): CCOC(=O)C(CC)Cc1ccc(C(=O)NCc2ccccc2Cl)cc1 (stereo not drawn) [Compound 4b, Ethyl 2-ethyl 3-[4-(N-((2-chloro)benzyl)benzamide)]propanoate]
- activation at 10 µM [1]: 14%

Structure (SMILES): CCC(Cc1ccc(C(=O)NCc2ccc(F)cc2)cc1)C(=O)O (stereo not drawn) [Compound 7c, 2-Ethyl 3-[4-(N-((4-fluoro)benzyl)benzamide)]propionic acid]
- activation at 10 µM [1]: 23%

Structure (SMILES): CCC(Cc1ccc(C(=O)NCc2ccc(C(F)(F)F)cc2)cc1)C(=O)O (stereo not drawn) [Compound 8c, 2-Ethyl 3-[4-(N-((4-trifluoromethyl)benzyl)benzamide)]propionic acid]
- Emax [3]: 89%

Structure (SMILES): CCC(Cc1cccc(C(=O)NCc2ccccc2C(F)(F)F)c1)C(=O)O (stereo not drawn) [Compound 15c, 2-Ethyl 3-[3-(N-((2-trifluoromethyl)benzyl)benzamide)]propionic acid]
- Emax [1]: 60%
- EC50 [1]: 6.4 ± 1.3 µM

Structure (SMILES): CCOC(=O)CCc1ccc(C(=O)NCc2ccccc2C(F)(F)F)cc1 [Compound 16b, Ethyl 3-[4-(N-((2-trifluoromethyl)benzyl)benzamide)]propanoate]
- activation at 10 µM [1]: 38%

Structure (SMILES): O=C(O)CCc1ccc(C(=O)NCc2ccccc2C(F)(F)F)cc1 [Compound 16c, 3-[4-(N-((2-trifluoromethyl)benzyl)benzamide)]propionic acid]
- activation at 10 µM [1]: 38%

Structure (SMILES): CCCC(Cc1ccc(C(=O)NCc2ccccc2C(F)(F)F)cc1)C(=O)OCC (stereo not drawn) [Compound 18b, Ethyl 2-propyl 3-[4-(N-((2-trifluoromethyl)benzyl)benzamide)]propanoate]
- EC50 [1]: 0.9 ± 0.2 µM

Structure (SMILES): O=C(NCc1ccccc1C(F)(F)F)c1ccc(C2CC2C(=O)O)cc1 (stereo not drawn) [Compound 22, 2-[4-(N-((2-trifluoromethyl)benzyl)benzamide)]cyclopropan carboxylic acid]
- sEH IC50 / inhibitory potency (unit not given) [4]: double-digit nanomolar range
- activation at 10 µM [1]: 24%
